The target in experiment [1] is GroEL ATPase (Escherichia coli, UniProt P0A6F5). As to conditions: read-out: Biochemical Assay IC50, GroEL ATPase.
The target of experiment [2] is T1, E. coli GroEL/ES chaperonin system (Escherichia coli, UniProt P0A6F5). As to conditions: read-out: Biochemical Assay IC50, GroEL/ES-mediated refolding of dMDH.
Experiment [3] addresses human HSP60/10 chaperonin system (Homo sapiens, UniProt P10809). Description: HSP60/10-dMDH refolding assay. As to conditions: read-out: Biochemical Assay IC50, HSP60/10-dMDH Refolding.
Experiment [4] concerns the target T1, E. coli GroEL/ES chaperonin system. As to conditions: read-out: Biochemical Assay IC50, GroEL/ES-mediated refolding of dRho.

The chains behind the UniProt entries cited, without tags or fusion partners. Residues count along the entry.
UniProt P0A6F5, 2-548: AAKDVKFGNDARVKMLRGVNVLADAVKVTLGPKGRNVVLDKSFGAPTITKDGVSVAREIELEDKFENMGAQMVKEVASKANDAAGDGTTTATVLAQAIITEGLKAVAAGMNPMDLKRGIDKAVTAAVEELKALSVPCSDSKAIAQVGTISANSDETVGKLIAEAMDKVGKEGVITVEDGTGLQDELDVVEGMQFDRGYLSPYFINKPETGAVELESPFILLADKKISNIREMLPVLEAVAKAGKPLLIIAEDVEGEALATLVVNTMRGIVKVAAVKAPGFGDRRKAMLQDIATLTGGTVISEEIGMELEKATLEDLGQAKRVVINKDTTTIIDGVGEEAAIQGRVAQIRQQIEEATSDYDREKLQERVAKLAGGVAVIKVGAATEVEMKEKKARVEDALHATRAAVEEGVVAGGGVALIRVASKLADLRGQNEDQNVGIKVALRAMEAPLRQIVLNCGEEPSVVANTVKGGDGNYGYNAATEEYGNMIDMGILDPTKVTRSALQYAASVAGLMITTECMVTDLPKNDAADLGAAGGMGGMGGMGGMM
UniProt P10809, 27-573: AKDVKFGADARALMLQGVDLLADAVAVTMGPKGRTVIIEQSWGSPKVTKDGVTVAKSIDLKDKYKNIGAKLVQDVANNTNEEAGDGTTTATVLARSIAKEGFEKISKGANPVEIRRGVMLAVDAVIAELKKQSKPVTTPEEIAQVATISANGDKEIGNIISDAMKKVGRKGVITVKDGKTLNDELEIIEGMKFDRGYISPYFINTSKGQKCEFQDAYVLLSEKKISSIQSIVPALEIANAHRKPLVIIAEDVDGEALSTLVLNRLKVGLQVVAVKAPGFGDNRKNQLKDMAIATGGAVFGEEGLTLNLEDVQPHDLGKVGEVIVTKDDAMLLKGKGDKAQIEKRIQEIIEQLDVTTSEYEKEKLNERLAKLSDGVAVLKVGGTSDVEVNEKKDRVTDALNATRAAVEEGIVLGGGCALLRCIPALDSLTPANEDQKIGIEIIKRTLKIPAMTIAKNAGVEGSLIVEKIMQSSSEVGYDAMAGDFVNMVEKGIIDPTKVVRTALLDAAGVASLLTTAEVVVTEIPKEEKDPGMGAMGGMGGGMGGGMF

Where two headings read alike, the source gives them in different places. Some results are limits rather than exact numbers.

IC50 data for two substances are collected here from publication PMC6450568 (Bioorganic & medicinal chemistry letters, 2019).

Take “Chlorophyllin sodium copper salt [Compound 19]”: the IC50 is > 250 µM in experiment [1], 2.3 µM in experiment [2], 4.4 µM in experiment [3] and 1.2 µM in experiment [4].

Turning to “Cyanocobalamin (vtamin B12) [Compound 36]”, the IC50 was > 250 µM in experiment [1], 16 µM in experiment [2], 12 µM in experiment [3] and 0.12 µM in experiment [4].
